Values of other authors in US20120295320A1, “APPARATUS AND METHOD FOR TREATMENT OF MICROORGANISMS DURING PROPAGATION, CONDITIONING AND FERMENTATION USING STABILIZED CHLORINE DIOXIDE/SODIUM CHLORITE WITH HOPS ACID EXTRACTS” (RESONANT BIOSCIENCES, LLC, priority 2010, published 2012).

Tested on: fermentation
Settings: background statement, fermentation mixture

**Q.** With Virginiamycin as the substance, how does the “concentration that will suppress fermentation” value read?
**A.** over 2 mg/L
